Experimental data: patent US7888338B2, “7-(2-cyclohexylidene-ethylidene)-spiro[4.5]decanes” (K.U. Leuven Research & Development, priority 2004, dated 2011)

Tested on: MCF-7 cells
Experiment: Measurement of cell proliferation, breast carcinoma cells MCF-7, [3H]thymidine incorporation
Type: cell-based
Conditions: cell proliferation ([3H]thymidine incorporation), relative to control 1α,25(OH)2D3 = 100
Procedure: Selected compounds of the present invention are evaluated for their effect on cell proliferation. Malignant MCF-7 cells are cultured in DMEM nutrient mix F12 (HAM) medium which is supplemented with 10% heat inactivated FCS, glutamine (2 mM), penicillin (100 units/mL) and streptomycin (0.1 mg/mL). The cultures are maintained at 37° C. in an atmosphere of humidified air containing 5% CO2. The MCF-7 cells are seeded at approximately 5×10^3 cells/well in the DMEM modified medium in a 96-well microtiter plate. […]. Finally, 1 μCi of [^3H]thymidine is added to each well and the cells are harvested after a further 4 hour incubation period. The cells are harvested with a Parckard Harvester and the cell count measured by a Packard Topcount System.

C=C1/C(=C\C=C2/CCC[C@]3(C)[C@@H]([C@H](C)CCCC(C)(C)O)CC[C@@H]23)C[C@@H](O)C[C@@H]1O [1α,25(OH)2D3, 1α,25-dihydroxyvitamin D3]
MCF-7: 100
